Reference: PubChem BioAssay AID602333 (Sanford-Burnham Center for Chemical Genomics, 2012)
The entries are a selection whose mix differs from that of the whole data set. Active and inactive are the calls of the source.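 How the source made its calls: active means mean inhibition at least 40% at 20 µM, or signal 3 deviations below plate average, so some actives read negative; inactive means the rest.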

The chains behind the UniProt entries cited, without tags or fusion partners.
UniProt P00735, whole entry: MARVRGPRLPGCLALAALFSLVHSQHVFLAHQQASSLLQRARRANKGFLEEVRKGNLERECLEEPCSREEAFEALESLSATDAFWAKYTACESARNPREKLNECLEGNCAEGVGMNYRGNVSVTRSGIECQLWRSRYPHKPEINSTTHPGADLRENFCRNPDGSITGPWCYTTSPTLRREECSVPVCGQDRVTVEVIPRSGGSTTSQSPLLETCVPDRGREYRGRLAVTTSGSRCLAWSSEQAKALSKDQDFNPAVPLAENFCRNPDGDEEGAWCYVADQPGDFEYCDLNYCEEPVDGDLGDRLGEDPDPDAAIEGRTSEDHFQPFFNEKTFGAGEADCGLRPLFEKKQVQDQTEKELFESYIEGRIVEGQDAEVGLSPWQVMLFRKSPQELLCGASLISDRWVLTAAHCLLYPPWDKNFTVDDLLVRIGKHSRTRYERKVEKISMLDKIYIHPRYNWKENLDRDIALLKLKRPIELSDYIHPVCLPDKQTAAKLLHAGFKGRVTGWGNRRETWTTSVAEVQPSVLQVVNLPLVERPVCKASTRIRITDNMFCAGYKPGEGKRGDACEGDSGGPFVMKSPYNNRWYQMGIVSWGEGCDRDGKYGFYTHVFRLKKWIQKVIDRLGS

Biological target: Prothrombin (Bos taurus) (UniProt P00735)
Test: blocking of thrombin cleavage of Ub4 substrate – biochemical, fluorescence polarization, single concentration, counter-screen for Rpn11 inhibitor project, confirmation (AID 602333);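 further: plate controls were thrombin with DMSO for no effect and buffer wells lacking thrombin for full effect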
Conditions: bovine thrombin cleavage of Ub4-pepOG, at 20 µM, active compounds read high

SMILES	inhibition
CCCCCCCCCCCCCCCC1C[N+](C)(C)CCOP(C)(=O)O1 (stereo unspecified)	inactive: -12.4%
